Measurements taken from patent US5534542A, “Methods and materials relating to a bi-metallic cross-linking species” (priority 1994, dated 1996).

Assay: Solubility of the cross-linker complex in solvents
Format: physicochemical
Conditions: compared with the Step 9 crosslinker
From the text: The cross-linker species of the present invention has been characterized by a combination of analytical and spectroscopic techniques. […] The complex is quite soluble in DMSO, although a warning has been issued concerning the compositions of DMSO solutions of cisplatin derivatives (Sundquist, 1987). The proton NMR spectrum of the complex in d7-DMF is poorly resolved, and the resonances due to the residual protons in the deuterated solvent tend to obscure parts of the spectrum of the complex.
This appears to be an effect of particle size on dissolution rate, since no differences can be discerned in the infrared spectra of the complex before or after this treatment. In particular there is no evidence for coordinated DMSO in the region 1000-1200 cm-^1.

5-(chloromercuri)-pentane-1,2-diammine(dimethylsulfoxide)-chloroplatinum(II) chloride [Complex 8]
aqueous solubility: improved aqueous solubilities
